# According to US9334286B2, “Pharmacologically active compounds” (Cancer Research Technology Limited, priority 2012, dated 2016):
# Protein sequences, listed by entry. Tags and fused reporters are not part of them. Lines headed by an entry give the natural chain unless they say otherwise; changes in a name come on top.
# UniProt P33981: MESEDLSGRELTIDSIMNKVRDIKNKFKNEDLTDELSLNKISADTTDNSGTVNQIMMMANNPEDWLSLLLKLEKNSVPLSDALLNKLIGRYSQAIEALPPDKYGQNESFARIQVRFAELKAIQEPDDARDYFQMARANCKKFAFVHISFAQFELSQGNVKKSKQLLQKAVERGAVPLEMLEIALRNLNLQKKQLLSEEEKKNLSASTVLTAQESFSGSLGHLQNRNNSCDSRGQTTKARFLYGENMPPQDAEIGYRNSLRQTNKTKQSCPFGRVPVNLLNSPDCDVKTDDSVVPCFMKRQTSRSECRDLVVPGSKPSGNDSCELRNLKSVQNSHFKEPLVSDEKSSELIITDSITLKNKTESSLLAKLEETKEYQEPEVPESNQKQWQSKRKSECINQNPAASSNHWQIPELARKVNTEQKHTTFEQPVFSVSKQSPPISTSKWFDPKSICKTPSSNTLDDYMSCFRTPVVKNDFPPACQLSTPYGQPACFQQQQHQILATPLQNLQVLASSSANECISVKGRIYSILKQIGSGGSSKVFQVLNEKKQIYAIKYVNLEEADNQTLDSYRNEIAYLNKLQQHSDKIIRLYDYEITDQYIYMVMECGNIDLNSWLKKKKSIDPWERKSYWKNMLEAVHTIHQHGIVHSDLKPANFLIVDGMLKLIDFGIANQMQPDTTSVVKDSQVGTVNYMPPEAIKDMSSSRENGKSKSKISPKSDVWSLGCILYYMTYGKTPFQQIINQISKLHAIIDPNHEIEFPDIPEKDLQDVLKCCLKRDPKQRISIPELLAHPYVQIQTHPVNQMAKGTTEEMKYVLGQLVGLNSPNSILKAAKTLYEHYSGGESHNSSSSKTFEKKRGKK
# Molecular target: full length MPS1 (Homo sapiens (Human), UniProt P33981)
# Test: Measurement of inhibition of MPS1 kinase (Caliper EZ reader, fluorescent labelled peptide H236)
# Format: biochemical
# Conditions: full length MPS1 12.5 nM or 3 nM, peptide H236 5 μM, ATP 10 μM, 60 min at room temperature
# Experimental: The reaction was carried out for 60 min at room temperature and stopped by the addition of buffer (10 μl) containing 20 mM EDTA, 0.05% (v/v) Brij-35, in 0.1M HEPES-buffered saline (Free acid, Sigma, UK). The plate was read on a Caliper EZ reader II (Caliper Life Sciences).
# The reader provides a Software package (‘Reviewer’) which converts the peak heights into % conversion by measuring both product and substrate peak and also allows selection of control well which represent 0% and 100% inhibition respectively. The % inhibition of the compounds is calculated relative to the means of selected control wells. IC50s are determined by testing the compounds at a range of concentrations from 0.25 nM-100 μM. The % inhibitions at each concentration are then fitted to a 4 parameter logistic fit: y=(a+((b−a)/(1+((c/x^d)))) where a=asym min, b=asym max, c=IC50 and d=hill coefficient
structure (smiles),measurement,value
"COc1cc(C(=O)N2CC(OC)C2)ccc1Nc1cc2cc(-c3cnn(C4CCCC4O)c3)ccc2cn1 (racemic) [Example 83, (4-((6-(1-(2-Hydroxycyclopentyl)-1H-pyrazol-4-yl)isoquinolin-3-yl)amino)-3-methoxy-phenyl)(3-methoxyazetidin-1-yl)methanone]",IC50,3 nM
